This passage reports IC50 results from ChEMBL document CHEMBL1129509, “Hypoxia-selective antitumor agents. 12. Nitrobenzyl quaternary salts as bioreductive prodrugs of the alkylating agent mechlorethamine” (1996).

This experiment concerns CHO-AA8. Briefly: Cytotoxicity against AA8 cell and IC50 values were determined as drug concentration required to inhibit cell protein to 50%.

With `CN(CCCl)CCCl`, the IC50 came out at 2000 nM.
